Values joined by “and” are separate entries in the source; they are usually repeats but may differ in a detail not shown here. Identical values can stand only once. Like-named read-outs stand apart in the source and are kept apart here. Only a part of the results on these compounds is given; other tests are left out.
Columns and labels:
[1] = test system: MAC15A (murine adenocarcinoma colon); assay: Anti-tumour activity against MAC15A ascites tumour, survival T/C%; assay type: in vivo, mice; settings: median survival, test vs solvent control; 100 mg kg^-1 ip per day; schedule days 1,2,3
uninfected H9 cells = settings: read-out: CC50 (Toxicity), Table 11.2, section Against chronically infected cells, unit inferred
uninfected cells = assay: Toxicity Assay, 14C protein hydrolysate uptake, 72 hours; settings: Table 10; 50% inhibition of 14C protein hydrolysate uptake

Row | Compound | T/C% [1] | CC50 (uninfected H9 cells; Average) | CC50 (uninfected H9 cells; single assays) | CD50 (uninfected cells)
1 | O=[N+]([O-])c1cc([N+](=O)[O-])c(Cl)c([N+](=O)[O-])c1 | 113% | 9.5 µM | 7 µM and 12 µM | 
2 | O=[N+]([O-])c1cc([N+](=O)[O-])c(O)c([N+](=O)[O-])c1 | 300% |  |  | 95µm
